# AlphaSeq binding of Ab-14 light chain variants to a spike HR2 peptide

Antigen: PDVDLGDISGINAS, a 14-residue peptide of the SARS-CoV-2 spike HR2 region.

Parent: Ab-14, a human scFv built as VH, the linker GGGGSGGGGSGGGGS, VL. Only the CDRs of the light chain vary.
VH: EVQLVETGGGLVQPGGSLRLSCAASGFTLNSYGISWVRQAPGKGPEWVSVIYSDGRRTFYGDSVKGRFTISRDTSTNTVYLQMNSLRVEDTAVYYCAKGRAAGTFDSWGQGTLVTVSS
VL: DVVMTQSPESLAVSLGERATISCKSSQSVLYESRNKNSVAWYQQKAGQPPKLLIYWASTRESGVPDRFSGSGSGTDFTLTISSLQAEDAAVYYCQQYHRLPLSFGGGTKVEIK

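The starting antibody came from a phage panning campaign against this peptide. This is the validation round: designs drawn from the data on random variants, tested in the same kind of assay. Group labels follow the data file (Ctrl: baseline library sampled from a position-specific scoring matrix, with some repeated check sequences; En: ensemble of fine-tuned language models; GP: Gaussian process model; HC: hill climbing; Gen: genetic algorithm; Gibbs: Gibbs sampling; a sequence that several methods proposed may carry one label only). The scFvs were displayed on barcoded MATa yeast, the peptide on MATalpha yeast. The frequency of each diploid, read from paired DNA barcodes, reflects how well the two displayed proteins bind. The ratio of observed to expected reads was calibrated, replicate by replicate, on BCL2-family standards whose Kd was known from biolayer interferometry. Each pool was mated in six replicate cultures.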

Variants are written as CDR1, CDR2 and CDR3 of the light chain (limits as in the source). Parent: KSSQSVLYESRNKNSVA, WASTRES, QQYHRLPLS. Each Kd is an estimate from the mating assay, the geometric mean of the replicates in which the pair was seen; lower is stronger. "nd" marks a missing value. The strain was present, yet no cells mated with the target were sequenced in any replicate, which points to weak or no binding. The parent sequence was in this pool as ten entries: three were never detected, three once, and four in most replicates, with averages from 2.2 nM to 240 nM.

For KLSQYVGGESRNKSSLA, DNSTREE, QQYHRLPLS [En_HC], the assay gave nd (0 of 6 replicates).
For KSSQSVLQESRNKNSFA, GASTRES, QCYHRLPLS [Ctrl], the assay gave 3.1 nM (6 of 6 replicates).
For KLQQSVLYESRQKNSVA, NASTRES, QQYHRLPLS [GP_Gen], the assay gave 1.5 nM (6 of 6 replicates).
For KISYMGDYFSTNHSSIA, QASTREQ, QQYHRLPLS [En_HC], the assay gave 1.9 nM (6 of 6 replicates).
For TISQVHEMLSHNKNSVA, DMNTRES, QQYDRLPLS [En_HC], the assay gave 8.5 nM (6 of 6 replicates).
For KYMQGVLYESRNKNDVA, WASTRES, QQYHRLPLS [Ctrl], the assay gave 10 nM (6 of 6 replicates).
For KVSWSNLYESRNANSVA, NASQRCS, QQYHRLPLS [GP_Gibbs], the assay gave 1.2 nM (6 of 6 replicates).
For KLPQSQLYESRNKNSVA, DASTRES, QQYHRLPLS [GP_Gen], the assay gave 450 pM (6 of 6 replicates).
For KSSCSYLYESRNKNSVA, EASTRES, QQYHRLPLM [GP_HC], the assay gave 920 pM (6 of 6 replicates).
For KSSWSELFESRNKNSVA, DASTRES, QQYHRLPLS [GP_HC], the assay gave 1.1 nM (6 of 6 replicates).
For KVSQSHLYESRNKNAVA, EASTRES, QQYHRLPLS [GP_Gen], the assay gave 2.7 nM (6 of 6 replicates).
For KLSQSVLFWGHAINSVA, EMETREA, QQYDRLPLS [En_HC], the assay gave 88 nM (5 of 6 replicates).
For KLSWSVGYGQRNKNSVA, EASTRMS, QQYHRLPLY [GP_Gibbs], the assay gave 6.1 nM (6 of 6 replicates).
For KWSQSVLGEERNKMSVA, NASQRES, QQYHRLPLS [GP_Gibbs], the assay gave 1.0 nM (6 of 6 replicates).
For KSSQSVPMESRNKNSVA, AGGTRES, QQYHRLPLS [Ctrl], the assay gave 2.3 nM (6 of 6 replicates).
For KLVQSVLYESRNKNSVA, GASTRES, QQYHRLPLS [GP_Gen], the assay gave 1.5 nM (6 of 6 replicates).
For RMSQSVLQEERNDNSVA, SASTRCS, QQYHRLPLS [GP_Gibbs], the assay gave 5.9 nM (6 of 6 replicates).
For KSSQFVLYESRNKNSVA, WASTRES, QQYHRLPLS [Ctrl], the assay gave 270 nM (3 of 6 replicates).
For TITNFMGNLSQNRNSVA, DTSTSGE, QSYDRLPLS [En_Gen], the assay gave 5.4 µM (1 of 6 replicates).
For KSSQSVLYESRNKNSVA, RASTRES, YQYHRLPLS [Ctrl], the assay gave nd (0 of 6 replicates).
For TISGMANYESTNKNSVA, ELTTRGN, QQYERLPLS [En_HC], the assay gave 30 nM (6 of 6 replicates).
For KFSQSVLYESRAKNSVA, NASTRES, QWYHRLPLS [GP_HC], the assay gave 54 nM (6 of 6 replicates).
For SITQLVGYGQKNKNSVA, QMETREN, QQYDRLPLS [En_HC], the assay gave 3.2 nM (6 of 6 replicates).
For SFSQSVLYEDRTKNSVA, NASTRES, QQYHRLPLS [GP_HC], the assay gave nd (0 of 6 replicates).

The remaining entries, values ahead:

nd (0 of 6 replicates) for IVSQLMLWGMHAKNSIA, EAEMRLN, QQYERLPLF [En_Gen].
60 nM (3 of 6 replicates) for KLSPSVNGQSRNKNSVA, EASTREQ, QDYHRLPLS [GP_Gibbs].
3.7 nM (6 of 6 replicates) for KIGMTLNQMMHKKNAVA, DLVTREN, QQYHRLPLS [En_Gen].
110 nM (6 of 6 replicates) for KVSPSHLYWSRNKNQVA, QANTRET, QQYHRLPLS [GP_Gibbs].
820 pM (6 of 6 replicates) for KFSQSVLYESRNKNSVA, HASTRYS, QQYYQLPLS [Ctrl].
110 nM (5 of 6 replicates) for HVSESVFAQSKMKNSVA, ENSTRES, QQYDRLPLS [En_HC].
63 nM (3 of 6 replicates) for MISQLYNMGQFAINSVA, QASERNA, QQYDRLPLF [En_Gen].
140 nM (2 of 6 replicates) for MVTQLMLWGWHAKNSIA, EAQTRIN, QQYDRLPLF [En_Gen].
470 pM (6 of 6 replicates) for KVSQMVDYESRNKNNVA, EASTRMS, QQYHRLPLS [GP_Gibbs].
6.9 nM (6 of 6 replicates) for KLSMTTEMEHVNRNSVA, ELVTRMS, QQYNRLPLS [En_Gen].
7.6 nM (6 of 6 replicates) for KSSQSGGYMSDNENSVA, WASTKES, QQYHRLPLS [Ctrl].
12 nM (1 of 6 replicates) for NFSMELEDMGVKTKSIA, ENQLTEY, QQYAKLPLM [En_Gibbs].
7.2 nM (8 of 12 replicates) for KFSQSVLYESRNKNSVA, MASTRES, QQYHRLPLS [Ctrl+GP_HC].
4.4 µM (1 of 6 replicates) for KLSMSMLMESFHKNNVA, ENSTREE, QHYHRLPLS [En_HC].
430 pM (6 of 6 replicates) for KLRQQTLYETRNKNSVA, EASTREE, QQYHRLPLS [GP_HC].
540 pM (6 of 6 replicates) for KFSPSWLYESRNKNSVA, NASTRES, QQYHRLPLS [GP_HC].
6.0 nM (6 of 6 replicates) for KLDYLNGYSDIGGNSIA, DVSTAGM, QQYIRLPLS [En_Gibbs].
430 nM (2 of 6 replicates) for KIGHGLTTESRNRNSVA, QTETRVQ, QHYHRLPLS [En_HC].
1.3 nM (6 of 6 replicates) for KLSQSWLYESRNWNSVA, NASTRES, QQYHRLPLS [GP_Gen].
43 µM (1 of 6 replicates) for MLSDLVKMGSRNHNSVA, DNSTRGS, QQYDRLPLS [En_HC].
1.7 nM (6 of 6 replicates) for QLYAVNDLTTKNSNNVA, EQTTREN, QQYHRLPLS [En_HC].
2.4 nM (6 of 6 replicates) for KLWIDMYNGRNKANAVA, EGNILAN, QQYARLPFL [En_Gibbs].
23 nM (6 of 6 replicates) for KQPQLGLYGSRNKNSVA, EASTRES, QQYHRLPLS [GP_Gibbs].
3.2 nM (6 of 6 replicates) for KSSQSVLYESRNKNSVA, NASTRES, QQYHILPLY [Ctrl].
10 nM (6 of 6 replicates) for KSSQSVLYEGRYKNAVA, EASTRES, QQYHRLPLS [Ctrl].

Excerpt, the final 3 entries:

Variant KQPQLGLYGSRNKNSVA, EASTRES, QQYHRLPLS [GP_Gibbs] showed 23 nM (6 of 6 replicates).
Variant KSSQSVLYESRNKNSVA, NASTRES, QQYHILPLY [Ctrl] showed 3.2 nM (6 of 6 replicates).
Variant KSSQSVLYEGRYKNAVA, EASTRES, QQYHRLPLS [Ctrl] showed 10 nM (6 of 6 replicates).

Where one sequence has several entries in the source, the replicates are pooled. A sequence measured in both rounds can read differently, since the two assays cover different ranges. The authors' rule: three or more of the six replicates give a measured affinity, fewer mean a poor binder. Empty control strains, which show no peptide, gave a signal in 4% of pairings with all light chain designs; the median was 430 nM and 95% of these signals were weaker than 38 nM. No background was subtracted.

The measurements come from Li et al. 2023 (doi:10.1038/s41467-023-39022-2) through the FLAb antibody collection.